Assays:
[1] = target: T1, Vitamin D3 receptor (Rattus norvegicus) (UniProt P13053); experiment: Ratio of ED50 for drug to 1-alpha,25-dihydroxyvitamin for rat recombinant VDR
T1 sequence (whole entry): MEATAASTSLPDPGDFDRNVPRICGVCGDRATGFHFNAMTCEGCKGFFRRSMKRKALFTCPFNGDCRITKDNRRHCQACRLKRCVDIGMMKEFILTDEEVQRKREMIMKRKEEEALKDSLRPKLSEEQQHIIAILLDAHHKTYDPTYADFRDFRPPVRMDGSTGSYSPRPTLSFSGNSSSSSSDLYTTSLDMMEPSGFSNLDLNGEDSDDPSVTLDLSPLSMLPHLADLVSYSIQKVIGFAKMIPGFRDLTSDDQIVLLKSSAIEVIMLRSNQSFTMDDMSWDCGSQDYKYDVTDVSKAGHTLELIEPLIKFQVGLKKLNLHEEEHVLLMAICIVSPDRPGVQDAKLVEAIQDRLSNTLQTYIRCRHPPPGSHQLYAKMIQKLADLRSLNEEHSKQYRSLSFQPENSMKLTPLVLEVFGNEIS

[2] = target: T1, Vitamin D3 receptor (Rattus norvegicus); experiment: Ratio of ED50 for drug to 1-alpha,25-dihydroxyvitamin for VDR in rat osteosarcoma cells assessed as 24-hydroxylase transcription; format: cell-based

Row | Ratio ED50 [1] | Ratio ED50 [2] | SMILES
1 | > 1e+06 | – | C[C@H](CCCC(C)(C)O)C1CC[C@H]2/C(=C/C=C3\C[C@@H](O)C4=CCCO[C@@H]4C3)CCC[C@]12C (stereo partly drawn)
2 | 560 | 1 | C[C@H](CCCC(C)(C)O)C1CC[C@H]2/C(=C/C=C3/C[C@@H](O)C4=CCCO[C@@H]4C3)CCC[C@]12C (stereo partly drawn)

Reference: ChEMBL document CHEMBL1138266, “Design, synthesis, and biological evaluation of a 1alpha,25-dihydroxy-19-norvitamin D3 analogue with a frozen A-ring conformation” (J Med Chem, 2007)
